From article PMC11665553, “12-Lipoxygenase inhibition delays onset of autoimmune diabetes in human gene replacement mice” (JCI Insight, 2024)

Assay: Pharmacokinetics after single p.o. dose in NOD.ShiLt/J mice (plasma LC-MS/MS)
Conditions: 30 mg/kg p.o., mean ± SD

COc1cccc(CNc2ccc(S(=O)(=O)Nc3nc4ccccc4s3)cc2)c1O [VLX-1005]
tmax: 15 ± 0 min
